Patent publication US20050202089A1, “Sustained-release pharmaceutical formulations containing mizolastine” (SANOFI-SYNTHELABO, priority 1996, published 2005)

Details: weak base

Substance: 2-[[1-[1-[(4-fluorophenyl)methyl]-1H-benzimidazol-2-yl]piperid-4-yl]methylamino]-pyrimidin-4-ol [mizolastine]
- pK: 5.6
